Results from patent US6743429B2, “Use of calcitonin gene-related peptide in the prevention and alleviation of asthma and related bronchospastic pulmonary diseases” (Sherbrooke University, priority 1999, dated 2004).

Columns and labels:
sheep = assay: Haemodynamic parameters and baseline SRL after inhaled administration in sheep; assay type: in vivo
Excerpt: (§1) Eighteen sheep with a mean weight of 35 kg (range: 24 to 52 kg) were used for this study. […] Ten of these animals were defined as non-allergic and 8 as allergic, based on the absence or presence of both early and late airway responses after a standard inhalation challenge with Ascaris suum antigen. All sheep were allowed a 4-week recovery period after the allergen challenge before experimentation began. For each of the procedures hereafter presented, the unsedated animals were restrained on a standard shopping cart in the prone position and their heads were immobilized. After topical anesthesia of the nasal passages with 2% lidocaine solution, a balloon catheter was advanced through one nostril into the lower esophagus. Subsequently, a cuffed nasotracheal tube (7 to 8 mm in diameter) was placed with the guidance of a flexible fiberoptic bronchoscope.
The techniques used for investigating airway mechanics were again well-validated and standardized procedures (as is usually the case with large mammals). […] Lateral pressure in the trachea was measured with a sidehole catheter (inner diameter=2.5 mm) advanced through and positioned distal to the tip of the endotracheal tube. […] The transpulmonary pressure and flow signals were recorded on a Hewlett Packard (model 7754B, Mass. USA) multichannel recorder, which was linked to a PC 386 Personal Computer (IBM Equipment, Montreal, Quebec) for online calculation of mean RL by dividing the change in transpulmonary pressure by the change in flow at mid-tidal volume (Vt) (obtained by digital integration). […] Immediately after measuring RL, thoracic gas volume (Vtg) was measured in a constant-volume body plethysmograph to obtain specific lung resistance (SRL=RL×Vtg) in L×cm H2O/L/sec.
All aerosols were generated using a disposable medical nebulizer (Raindrop, Puritan-Bennett, Lenexa, Kan.) which produced an aerosol with a mass median aerodynamic diameter of 3.6 mm (geometric S.D. 1.9), as determined by a seven stage Andersen cascade impactor (Andersen, Inc. Atlanta, Ga.). […]

allergic sheep [1] = assay: Ascaris suum antigen-induced early and late increases in pulmonary resistance in sheep; assay type: in vivo; settings: aerosol 0.5 mg in 2 ml PBS pretreatment
Excerpt: as §1, with “After topical anesthesia of the nasal passages with 2% lidocaine solution, a balloon catheter was advanced through one nostril into the lower esophagus. Subsequently, a cuffed nasotracheal tube (7 to 8 mm in diameter) was placed with the guidance of a flexible fiberoptic bronchoscope.” left out
(§2) The techniques used for investigating airway mechanics were again well-validated and standardized procedures (as is usually the case with large mammals). […] Lateral pressure in the trachea was measured with a sidehole catheter (inner diameter=2.5 mm) advanced through and positioned distal to the tip of the endotracheal tube. […] The transpulmonary pressure and flow signals were recorded on a Hewlett Packard (model 7754B, Mass. USA) multichannel recorder, which was linked to a PC 386 Personal Computer (IBM Equipment, Montreal, Quebec) for online calculation of mean RL by dividing the change in transpulmonary pressure by the change in flow at mid-tidal volume (Vt) (obtained by digital integration). […]

allergic sheep [2] = assay: Metacholine-induced non-specific airway responsiveness in allergic sheep; assay type: in vivo; settings: inhaled 0.5 mg in 2 ml PBS
Excerpt: as §1, with “After topical anesthesia of the nasal passages with 2% lidocaine solution, a balloon catheter was advanced through one nostril into the lower esophagus. Subsequently, a cuffed nasotracheal tube (7 to 8 mm in diameter) was placed with the guidance of a flexible fiberoptic bronchoscope.” left out
as §2

guinea pig trachea = settings: cited from earlier work
allergic guinea pigs = assay: Allergen (ovalbumin)-induced bronchospasm (PIP) in allergic guinea pigs; assay type: in vivo, guinea pig; settings: CGRP pretreatment 3.8 to 114 mg/kg i.v., 5 minutes before OA 0.25 mg/kg i.v.
Experimental: Guinea pigs were anaesthetized with xylazine (20 mg/kg, i.m.) and ketamine hydrochloride (130 mg/kg, i.m.). The jugular vein and trachea were cannulated and animals were mechanically ventilated with a constant-volume rodent respirator (Havard, model 683) delivering a tidal volume of 5.5 ml/kg at a frequency of 60 cycles/min via the tracheal cannula. Airway resistance was measured by the overflow technique according to well-validated and standardized procedures. Briefly, ventilation overflow (i.e., the pulmonary insufflation pressure or PIP), was recorded at the side arm of the tracheal cannula by means of a differential pressure transducer (Gould P23 ID) connected to a Grass polygraph (model 7D). Airway responsiveness was assessed by measuring the changes in PIP following i.v. injections of the agonists. Changes in PIP, which were taken as an index of changed airway resistance, were measured and expressed in mm of mercury (mm Hg). […]
To determine the effect of CGRP on antigen-induced challenge in allergic guinea pigs, CGRP (3.8 to 114 mg/kg) was administered intravenously 5 minutes prior to the ovalbumin challenge (0.1 mg/kg, i.v.). […] In some experiments, systemic arterial blood pressure was monitored at the same time via a polyethylene catheter filled with heparinized-saline inserted into a carotid artery and linked to a pressure transducer (Gould P23 1 D) and a Grass polygraph.

rat isolated airways = settings: references (4, 21), cited from earlier work
[3] = inhaled increasing doses (CGRP 0.1, 0.25, 0.5 and 1.0 mg/2 ml)

## calcitonin gene-related peptide [CGRP]
sheep; inhaled CGRP 0.1 to 1.0 mg/2 ml, measured for six hours, no challenge
  specific lung resistance (SRL), baseline: without any significant effect
sheep; [3]
  heart rate: without any significant effect
  mean arterial blood pressure (MAP): without any significant effect
Allergic sheep [1]
  effect on acute (early phase) Ascaris suum-induced increase in RL: completely blocks
  effect on late phase bronchoconstriction to Ascaris suum antigen: completely blocks
Allergic sheep [2]
  protection against metacholine-induced increase in airway resistance: 100%
Guinea pig trachea; reference (8)
  contractile response, % of the maximum induced with 1.5×10^−5 M of methacholine: 30%
Guinea pig trachea; reference (9)
  contractile response, % of the capsaicin (10^−5 M) maximum: 14%
Guinea pig trachea; reference (19)
  contractile response, % of 50 mM KCI-induced contraction: 8%
Allergic guinea pigs
  effect on OA-induced increase in airway resistance (PIP): inhibited in a dose-related manner
Rat isolated airways; concentration-related
  prevention of bronchospasms induced by carbamylcholine and 5-hydroxytryptamine: marked ability to prevent
Rat isolated airways; trachea, bronchi and lung parenchymal strips
  direct contractile or relaxant effects: devoid of any direct contractile or relaxant effects
